These are literature values, as cited in patent publication US20250009659A1, “DEVELOPMENT OF A NEW FAMILY OF NANOCARRIERS DERIVED FROM NATURAL TETRAMERIC ACID LIPIDS” (UNIVERSITE DE RENNES, priority 2021, published 2025).

For this data set the following is noted: insulin in animals; most promising nanocarrier studies [1].

On to insulin, for which the oral bioavailability is 10 to 20%.
